organism: Homo sapiens; test: Selectivity index, ratio IC50 for wild-type EGFR (unknown origin) expressed in baculovirus expression system to IC50 for EGFR T790M/L858R mutant (unknown origin) expressed in baculovirus expression system

Row | SMILES | Ratio IC50
1 | C=CC(=O)Nc1cccc(Oc2nc(Nc3ccc(N4CCN(S(C)(=O)=O)CC4)cc3OC)ncc2SC)c1 | 100
2 | C=CC(=O)Nc1cccc(Oc2nc(Nc3ccc(N4CCN(C(C)=O)CC4)cc3OC(F)F)ncc2SC)c1 | 14
3 | C=CC(=O)Nc1cccc(Oc2nc(Nc3ccc(N4CCN(C(=O)C(C)C)CC4)cc3OC)ncc2SC)c1 | 48
4 | C=CC(=O)Nc1cccc(Oc2nc(Nc3ccc(N4CCN(C(=O)C(C)(C)C)CC4)cc3OC)ncc2SC)c1 | 42
5 | C=CC(=O)Nc1cccc(Oc2nc(Nc3ccc(N4CCN(C(C)=O)CC4)cc3OC)ncc2SC)c1 | 125
6 | C=CC(=O)Nc1cccc(Oc2nc(Nc3ccc(N4CCN(C(=O)CC)CC4)cc3OC(F)F)ncc2SC)c1 | 13
7 | C=CC(=O)Nc1cccc(Oc2nc(Nc3ccc(N4CCN(C(=O)C(F)(F)F)CC4)cc3OC)ncc2SC)c1 | 56
8 | C=CC(=O)Nc1cccc(Oc2nc(Nc3ccc(N4CCN(C)CC4)cc3OC)ncc2SC)c1 | 679
